# Test results published in patent US7655420B2, “Methods to increase or decrease bone density” (Celltech R & D, Inc., priority 2002, dated 2010).
# Tests used:
# Conditions in all cases: 72 hrs
# SOST expression = SOST expression in hMSC cells and primary human osteoblasts treated with growth factors and hormones (RT-PCR); format: cell-based
# Experimental: As immature osteoblasts differentiate and become capable of mineralization, they express markers associated with the osteoblast phenotype (type I collagen and parathyroid hormone receptor (PTHr)). These markers were used to ascertain whether differentiation had occurred so that the influence of growth factors and hormones could be correlated with the stage differentiation as well as the level of SOST expression.
# Human mesenchymal cells and primary human osteoblasts were plated in regular growth media containing 2% FCS at a density of 10,000 cells 1 cm^2. Test reagents (10^−7 M dexamethasone, 10^−6 M retinoic acid, 10 ng/ml TGF-β1, PTH (10^−8 M), 10 or 50 ng/ml IGF-1, 10^−7 M1,25-dihydroxyvitamin D3, and 50 to 300 ng/ml of bone morphogenetic proteins 2, 4 or 6) were added singly or in combination on the following day.
# noggin expression = noggin expression in hMSC cells treated with BMPs and steroids (RT-PCR); format: cell-based, human
# Experimental: (§1) In this example, the effect of growth factors and hormones on SOST expression in hMSC cells or primary human osteoblasts was observed using RT-PCR. Prior to measuring SOST expression, these cells were treated for 72 hrs with BMP-2, BMP-4, BMP-6, insulin-like growth factor-1 (IGF-1), parathyroid hormone (PTH), transforming growth factor-β (TGF-β), dexamethasone (DEX), retinoic acid (RA), and 1,25-dihydroxyvitamin D3 (vit D). As immature osteoblasts differentiate and become capable of mineralization, they express markers associated with the osteoblast phenotype (type I collagen and parathyroid hormone receptor (PTHr)). These markers were used to ascertain whether differentiation had occurred so that the influence of growth factors and hormones could be correlated with the stage differentiation as well as the level of SOST expression.
# (§2) Human mesenchymal cells and primary human osteoblasts were plated in regular growth media containing 2% FCS at a density of 10,000 cells 1 cm^2. Test reagents (10^−7 M dexamethasone, 10^−6 M retinoic acid, 10 ng/ml TGF-β1, PTH (10^−8 M), 10 or 50 ng/ml IGF-1, 10^−7 M1,25-dihydroxyvitamin D3, and 50 to 300 ng/ml of bone morphogenetic proteins 2, 4 or 6) were added singly or in combination on the following day. Cultures were continued for 24 to 120 hrs after which the cells were harvested for RNA isolation. […]
# gremlin expression = gremlin expression in hMSC cells treated with BMPs and steroids (RT-PCR); format: cell-based, human
# Experimental: as §1, §2
molecule,measurement,setting,value
"BMP-2: bone morphogenetic protein 2, purchased from R & D Systems (protein, UniProt P12643 283-396, looked up) Bone morphogenetic protein 2: QAKHKQRKRLKSSCKRHPLYVDFSDVGWNDWIVAPPGYHAFYCHGECPFPLADHLNSTNHAIVQTLVNSVNSKIPKACCVPTELSAISMLYLDENEKVVLKNYQDMVVEGCGCR","SOST expression, factor alone",SOST expression,up-regulated
same,"noggin expression, factor alone",noggin expression,up-regulated
same,"gremlin expression, factor alone",gremlin expression,only modestly increased
